The record followed here is ChEMBL document CHEMBL3822371, “Rapid Discovery and Structure-Activity Relationships of Pyrazolopyrimidines That Potently Suppress Breast Cancer Cell Growth via SRC Kinase Inhibition with Exceptional Selectivity over ABL Kinase” (J Med Chem, 2016).

The term pEC50 denotes the EC50 on a negative log10 scale, so that one unit is a factor of ten.

In this experiment the test system is MCF7. The experiment can be described thus: cells. The settings on record: Homo sapiens, MCF7, 120 h.

Each structure is given as a SMILES string. pEC50: −log10 of the molar value.

Take `CCOC(Cn1nc(-c2cnc3[nH]ccc3c2)c2c(N)ncnc21)OCC`: the pEC50 is 6.10.
